Results on 1 compound are retold here after ChEMBL document CHEMBL1127235, “1,1-diphenyl-3-dialkylamino-1-silacyclopentane derivatives: A new class of potent and selective 5-HT2A antagonists” (Bioorg Med Chem Lett, 1994).

Chains of the proteins cited; added tags and fusions are not shown.
UniProt P14842, whole entry: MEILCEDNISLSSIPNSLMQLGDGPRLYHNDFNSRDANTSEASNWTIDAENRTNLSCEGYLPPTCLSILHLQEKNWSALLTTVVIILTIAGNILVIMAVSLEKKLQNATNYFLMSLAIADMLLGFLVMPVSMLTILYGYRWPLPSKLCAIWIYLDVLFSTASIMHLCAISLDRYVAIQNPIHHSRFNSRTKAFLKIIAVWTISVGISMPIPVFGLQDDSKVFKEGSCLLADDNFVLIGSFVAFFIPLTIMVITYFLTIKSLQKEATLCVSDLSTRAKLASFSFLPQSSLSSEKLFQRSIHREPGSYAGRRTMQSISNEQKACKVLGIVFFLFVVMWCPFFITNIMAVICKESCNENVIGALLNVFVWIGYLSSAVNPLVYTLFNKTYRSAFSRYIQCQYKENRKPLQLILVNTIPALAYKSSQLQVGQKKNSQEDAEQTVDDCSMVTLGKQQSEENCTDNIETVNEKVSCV

In this assay the target is 5-hydroxytryptamine receptor 2A (Rattus norvegicus, UniProt P14842). Kind of assay: In vitro binding affinity towards serotonin 5-HT2A receptor in rat cortical membranes using [3H]ketanserin as radioligand. Type of assay: cell membranes.

For orientation: IC50 means the midpoint of a concentration-inhibition curve. Read a low IC50 as greater potency. Take `Cc1nc2sccn2c(=O)c1CCN1CCC(=C(c2ccc(F)cc2)c2ccc(F)cc2)CC1` [RITANSERIN]: the IC50 came out at 1.7 nM.
